According to patent US5112848A, “Furan and pyrrole containing lipoxygenase inhibiting compounds” (Abbott Laboratories, priority 1990, dated 1992):

Target: T1, 5-lipoxygenase (Rattus norvegicus, UniProt P12527)
T1 construct: 20,000× g supernatant from homogenized RBL-1 cells; endogenous in cells; host or cells: RBL-1 cells (20,000 x g supernatant of homogenate)
T1 sequence (P12527 1-673): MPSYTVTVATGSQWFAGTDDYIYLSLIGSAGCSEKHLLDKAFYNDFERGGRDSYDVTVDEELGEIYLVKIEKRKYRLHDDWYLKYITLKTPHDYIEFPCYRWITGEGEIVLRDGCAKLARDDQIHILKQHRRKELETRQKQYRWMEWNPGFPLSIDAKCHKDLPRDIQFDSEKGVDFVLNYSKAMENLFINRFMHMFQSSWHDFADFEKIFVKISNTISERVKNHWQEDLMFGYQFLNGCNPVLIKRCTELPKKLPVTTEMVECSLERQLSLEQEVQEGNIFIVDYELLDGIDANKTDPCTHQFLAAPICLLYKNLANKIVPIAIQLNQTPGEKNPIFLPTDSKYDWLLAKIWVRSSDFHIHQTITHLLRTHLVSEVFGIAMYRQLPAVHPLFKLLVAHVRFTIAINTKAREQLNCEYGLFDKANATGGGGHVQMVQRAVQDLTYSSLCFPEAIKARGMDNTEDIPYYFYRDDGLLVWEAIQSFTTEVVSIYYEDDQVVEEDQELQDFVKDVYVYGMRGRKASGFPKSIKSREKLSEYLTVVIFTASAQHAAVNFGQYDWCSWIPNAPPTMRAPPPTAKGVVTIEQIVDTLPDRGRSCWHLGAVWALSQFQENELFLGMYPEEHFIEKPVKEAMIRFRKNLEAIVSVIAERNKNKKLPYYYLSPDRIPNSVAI
Assay: Inhibition of 5-lipoxygenase (20,000× g supernatant from homogenized RBL-1 cells)
Type: biochemical
Settings: read-out: IC50 (concentration of compound producing 50% enzyme inhibition), linear regression of percentage inhibition versus log concentration
Method: Inhibition of 5-lipoxygenase activity was determined using the 20,000× g supernatant from homogenized RBL-1 cells in a similar manner to that described by Dyer and coworkers (Dyer, R. D.; Haviv, F.; Hanel, A. M.; Bornemier, D. A.; Carter, G. W. Fed. Proc., Fed. Am. Soc. Exp. Biol. 1984, 43, 1462A).

| IC50 | Compound |
| --- | --- |
| 15 µM | CC(c1ccoc1)N(O)C(N)=O (centres unmarked) [Example 56, N-Hydroxy-N-(1-fur-3-ylethyl) urea] |
| 0.3 µM | Cc1cc(C)c(-c2ccc(C(C)N(O)C(N)=O)o2)c(C)c1 (centres unmarked) [Example 12, N-hydroxy-N-(5-(2,4,6-trimethylphenyl)-fur-2-ylethyl) urea] |
